Assay results: patent US6511848B2, “Process for producing and multiplying lymphocytes” (Winfried Albert, priority 1996, dated 2003)

Tests used:
[1] = test system: tumour-infiltrating lymphocytes; experiment: Multiplication of tumour-infiltrating lymphocytes from human colon carcinoma fragments; format: cell-based
Method: The nodules of a human colon carcinoma which was removed by an operation from the large intestine is freed of connective tissue and normal parts of the intestine and cut into ca. 2×2×3 mm pieces. The tumour fragments are taken up in Iscove-modified DME medium (Gibco) which contains 15% FCS (BM) and divided equally into four culture dishes which are named A, B, C and D. IL-2 (20 ng/ml) is added to preparation A, aurintricarboxylic acid (4.2 μg/ml) is added to preparation B and IL-2 (20 ng/ml) plus aurintricarboxylic acid (4.2 μg/ml) is added to preparation C. Preparation D remains without additions. Three quarters of the respective culture media is removed each second day without changing the tissue or cell content. […] In the partial culture C the number of lymphocytes has increased 20-fold compared to A or B. The lymphocytes from C are isolated from the partial culture C and they are analysed on the basis of their surface markers.

[2] = test system: Mononuclear cells from peripheral blood (PBMNC); experiment: Multiplication of NK and T lymphocytes from mononuclear cells of human blood in serum-free medium; format: cell-based
Method: Mononuclear cells from peripheral blood (PBMNC) of a human donor are isolated by means of gradient centrifugation (lymphocyte separation medium, Boehringer Mannheim GmbH, Germany (BM)), washed twice with phosphate-buffered saline solution and taken up in DF medium at a density of 1×10^6 cells/ml and cultured in three separate preparations which are denoted A, B and C. Recombinant human IL-2 (BM, 20 ng/ml) and rh TGFβ1 (BM, 4 ng/ml) are added to preparation A, only IL-2 (20 ng/ml) is added to preparation B and only TGFβ1 (4 ng/ml) is added to preparation C. Half of the culture medium (+cytokine(s)) is renewed every second day and the cell count is adjusted to ca. 1×10^6 cells/ml during the first 7 days and subsequently to ca. […].

Substance: IL-2: Human recombinant IL-2 (BM), 20 ng/ml, lymphocyte growth factor
- multiplication of lymphocytic cells migrated out of tumour fragments (microscopic control) ([1]; Iscove-modified DME medium with 15% FCS, after 24-48 hours): not in the partial cultures A, B or D
- number of emigrated lymphocytes compared to day 2 ([1]; after a ten day culture): remained constant
- multiplication of lymphoid cells ([2]; over ca. 16 days): < 50 fold
- growth behaviour of the cells (in words) ([2]; serum-free DF medium, single cytokine): then stagnate and die after ca. 20 further days
